Amino acid sequences for entries named in this document (tags omitted). A change or cut given only in a name is not applied to a line headed by its entry.
UniProt P09874, whole entry: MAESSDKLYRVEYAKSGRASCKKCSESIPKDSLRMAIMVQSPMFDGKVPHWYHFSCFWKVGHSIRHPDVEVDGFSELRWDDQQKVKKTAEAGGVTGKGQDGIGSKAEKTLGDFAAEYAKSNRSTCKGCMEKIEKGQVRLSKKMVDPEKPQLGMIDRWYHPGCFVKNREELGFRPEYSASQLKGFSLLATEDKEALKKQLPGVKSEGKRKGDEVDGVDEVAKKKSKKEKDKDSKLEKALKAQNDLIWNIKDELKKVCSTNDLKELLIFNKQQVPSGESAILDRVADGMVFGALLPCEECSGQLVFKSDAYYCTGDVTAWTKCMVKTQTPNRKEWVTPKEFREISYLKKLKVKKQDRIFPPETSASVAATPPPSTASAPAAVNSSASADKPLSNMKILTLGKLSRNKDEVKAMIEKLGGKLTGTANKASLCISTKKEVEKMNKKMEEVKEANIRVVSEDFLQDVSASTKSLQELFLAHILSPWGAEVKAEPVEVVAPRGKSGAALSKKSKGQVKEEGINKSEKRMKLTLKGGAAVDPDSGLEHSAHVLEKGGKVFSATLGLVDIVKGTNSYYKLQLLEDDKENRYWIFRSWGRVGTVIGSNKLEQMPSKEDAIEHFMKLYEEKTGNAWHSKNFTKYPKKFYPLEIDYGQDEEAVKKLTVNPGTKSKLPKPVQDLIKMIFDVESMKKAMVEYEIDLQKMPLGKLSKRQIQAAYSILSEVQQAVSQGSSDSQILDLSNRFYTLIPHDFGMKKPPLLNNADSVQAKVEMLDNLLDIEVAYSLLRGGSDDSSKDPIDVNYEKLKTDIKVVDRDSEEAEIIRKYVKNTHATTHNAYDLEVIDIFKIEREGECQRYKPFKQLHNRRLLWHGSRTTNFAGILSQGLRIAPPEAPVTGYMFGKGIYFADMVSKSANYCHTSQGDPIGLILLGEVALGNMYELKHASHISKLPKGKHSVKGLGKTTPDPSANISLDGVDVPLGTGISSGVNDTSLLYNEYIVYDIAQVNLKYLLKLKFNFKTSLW
UniProt Q9UGN5: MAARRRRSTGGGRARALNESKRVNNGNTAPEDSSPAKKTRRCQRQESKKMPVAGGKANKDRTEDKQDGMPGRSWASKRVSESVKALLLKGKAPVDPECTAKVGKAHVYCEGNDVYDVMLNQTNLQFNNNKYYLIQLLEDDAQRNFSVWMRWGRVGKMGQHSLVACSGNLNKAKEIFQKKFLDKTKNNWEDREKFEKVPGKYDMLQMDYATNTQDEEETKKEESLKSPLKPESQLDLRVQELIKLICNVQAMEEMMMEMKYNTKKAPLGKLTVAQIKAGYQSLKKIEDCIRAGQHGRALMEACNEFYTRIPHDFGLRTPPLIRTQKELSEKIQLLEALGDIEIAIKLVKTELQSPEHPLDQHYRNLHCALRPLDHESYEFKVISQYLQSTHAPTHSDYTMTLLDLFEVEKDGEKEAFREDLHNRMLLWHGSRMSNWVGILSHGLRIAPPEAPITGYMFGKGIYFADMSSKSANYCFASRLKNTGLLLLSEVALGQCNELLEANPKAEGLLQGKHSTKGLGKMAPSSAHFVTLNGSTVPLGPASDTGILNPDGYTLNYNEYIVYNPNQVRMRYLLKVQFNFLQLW

In ChEMBL document CHEMBL3826913 (Eur J Med Chem, 2016):

Experiments:
[1] = biological target: Poly [ADP-ribose] polymerase 1 (Homo sapiens, UniProt P09874)
[2] = biological target: Poly [ADP-ribose] polymerase tankyrase-2 (Homo sapiens, UniProt Q9H2K2); test: biochemical
HT-29 [3] = test: cells; conditions: Homo sapiens, HT-29, read-out: INH
[4] = biological target: T1, Poly [ADP-ribose] polymerase tankyrase-1 (Homo sapiens, UniProt O95271)
T1 sequence (O95271 whole entry): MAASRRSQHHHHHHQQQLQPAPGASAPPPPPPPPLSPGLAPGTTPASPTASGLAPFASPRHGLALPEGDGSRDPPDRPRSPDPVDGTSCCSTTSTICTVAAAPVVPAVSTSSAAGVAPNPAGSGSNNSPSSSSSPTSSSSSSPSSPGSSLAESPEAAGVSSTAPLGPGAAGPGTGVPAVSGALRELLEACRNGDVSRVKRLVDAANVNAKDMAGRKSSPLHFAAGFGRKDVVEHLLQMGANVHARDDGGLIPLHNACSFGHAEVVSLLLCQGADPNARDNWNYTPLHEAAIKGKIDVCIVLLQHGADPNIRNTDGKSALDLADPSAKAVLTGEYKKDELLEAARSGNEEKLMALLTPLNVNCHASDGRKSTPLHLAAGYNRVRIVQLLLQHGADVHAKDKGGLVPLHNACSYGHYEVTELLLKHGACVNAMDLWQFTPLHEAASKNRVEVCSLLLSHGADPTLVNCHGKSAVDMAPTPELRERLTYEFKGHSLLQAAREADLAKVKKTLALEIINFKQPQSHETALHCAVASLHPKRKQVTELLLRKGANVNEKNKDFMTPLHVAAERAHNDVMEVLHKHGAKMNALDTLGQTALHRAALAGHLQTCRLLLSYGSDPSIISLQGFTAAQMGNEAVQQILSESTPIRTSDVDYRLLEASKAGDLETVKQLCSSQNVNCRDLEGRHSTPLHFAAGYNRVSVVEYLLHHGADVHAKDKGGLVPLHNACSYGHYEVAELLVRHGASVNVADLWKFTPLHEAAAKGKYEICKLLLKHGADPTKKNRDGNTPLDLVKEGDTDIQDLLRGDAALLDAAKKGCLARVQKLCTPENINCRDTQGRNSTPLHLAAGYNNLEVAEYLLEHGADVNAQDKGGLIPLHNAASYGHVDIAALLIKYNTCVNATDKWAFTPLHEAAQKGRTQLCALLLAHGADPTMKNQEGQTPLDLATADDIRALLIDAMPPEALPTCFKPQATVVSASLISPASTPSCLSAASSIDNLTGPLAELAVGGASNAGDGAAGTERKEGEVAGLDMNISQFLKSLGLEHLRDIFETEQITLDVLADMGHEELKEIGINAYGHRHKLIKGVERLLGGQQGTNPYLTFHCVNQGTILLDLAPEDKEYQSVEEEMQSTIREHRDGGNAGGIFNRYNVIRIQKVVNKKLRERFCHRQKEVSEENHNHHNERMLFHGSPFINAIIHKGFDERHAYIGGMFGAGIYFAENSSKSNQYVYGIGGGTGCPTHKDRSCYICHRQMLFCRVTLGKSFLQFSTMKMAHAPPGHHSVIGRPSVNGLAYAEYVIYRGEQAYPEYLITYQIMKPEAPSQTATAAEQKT

HT-29 [5] = test: cells; conditions: Homo sapiens, HT-29, read-out: INH; remark: listed apart in the source
HT-29 [6] = test: cells; conditions: Homo sapiens, HT-29, read-out: INH; remark: listed apart in the source
[7] = biological target: Poly [ADP-ribose] polymerase 2 (Homo sapiens, UniProt Q9UGN5)

IC50 [1] | IC50 [2] | IC50 [4] | IC50 [7] | SMILES | inhibition at 1 µM (HT-29 [3]) | inhibition at 10 µM (HT-29 [5]) | inhibition at 100 µM (HT-29 [6])
2400 nM | 167 nM | 153 nM |  | COc1cccc2c(=O)[nH]c(-c3ccc(C)cc3)nc12 | 0% | 0% | 20%
> 10000 nM | 459 nM | 299 nM | 1560 nM | COc1cccc2c(=O)[nH]c(-c3ccc(F)cc3)nc12 | 0% | 0% | 0%
> 100000 nM | 101 nM | 224 nM | > 100000 nM | O=c1[nH]c(-c2ccc(Br)cc2)nc2ccccc12 | 1% | 15% | 30%
 |  |  |  | COc1ccc(-c2nc(O)c3cccc(C)c3n2)cc1 | 14% | 1% | 11%
 |  |  |  | Cc1cccc2c(O)nc(-c3ccc(N)cc3)nc12 | 0% | 0% | 0%
856 nM | 86 nM | 156 nM |  | Oc1ccc(-c2nc(O)c3cccc(O)c3n2)cc1 | 0% | 20% | 86%
130 nM | 15 nM | 47 nM |  | O=c1[nH]c(-c2ccc(Br)cc2)nc2c(O)cccc12 | 0% | 65% | 77%
> 100000 nM |  |  | 2600 nM | O=c1[nH]c(-c2ccc(Cl)cc2)nc2ccccc12 | 0% | 0% | 5%
424 nM | 540 nM | 346 nM |  | Cc1ccc(-c2nc3ccccc3c(=O)[nH]2)cc1 | 9% | 36% | 4%
> 100000 nM | 1100 nM | 781 nM | 4690 nM | Oc1nc(-c2ccc(F)cc2)nc2ccccc12 | 5% | 8% | 1%
> 10000 nM | 45 nM |  | > 10000 nM | O=C(NCc1ccc(-c2nc3ccccc3c(=O)[nH]2)cc1)OCc1ccccc1 |  |  | 
 |  |  |  | O=c1[nH]c(-c2ccccc2)nc2cscc12 | 4% | 0% | 19%
 |  |  | 10500 nM | Cc1cccc2c(=O)[nH]c(-c3ccc(Br)cc3)nc12 | 6% | 6% | 0%
> 10000 nM | 1030 nM | 475 nM | 1540 nM | COc1cccc2c(O)nc(-c3ccccc3)nc12 | 0% | 0% | 19%
3110 nM | 25 nM | 53 nM |  | Oc1nc(-c2ccc(C(F)(F)F)cc2)nc2c(O)cccc12 | 2% | 0% | 0%
 |  |  |  | Cc1cccc2c(O)nc(-c3ccccc3)nc12 | 10% | 10% | 14%
105 nM | 191 nM | 58 nM |  | O=[N+]([O-])c1ccc(-c2nc(O)c3cccc(O)c3n2)cc1 | 0% | 0% | 0%
 |  |  |  | Cc1cccc2c(O)nc(-c3ccc([N+](=O)[O-])cc3)nc12 | 2% | 0% | 0%
266 nM | 43 nM | 907 nM |  | Cc1cccc2c(=O)[nH]c(-c3ccc(CN)cc3)nc12 | 0% | 4% | 100%
 |  |  |  | COc1ccc(-c2nc(O)c3ccccc3n2)cc1 | 10% | 0% | 0%
 |  |  |  | Cc1ccc(-c2nc3c(C)cccc3c(=O)[nH]2)cc1 | 2% | 3% | 2%
 |  |  |  | O=c1[nH]c(-c2ccc(O)cc2)nc2ccccc12 | 13% | 12% | 60%
 |  |  |  | Cc1cccc2c(O)nc(-c3ccc(O)cc3)nc12 | 8% | 15% | 72%
 |  |  | 3100 nM | Cc1cccc2c(O)nc(-c3ccc(C(F)(F)F)cc3)nc12 | 0% | 7% | 0%
289 nM | 219 nM | 83 nM |  | Nc1ccc(-c2nc(O)c3cccc(O)c3n2)cc1 | 0% | 23% | 87%
 |  |  | 6350 nM | Cc1cccc2c(=O)[nH]c(-c3ccc(Cl)cc3)nc12 | 0% | 60% | 0%
 |  |  | 683 nM | Cc1cccc2c(=O)[nH]c(-c3ccc(F)cc3)nc12 | 8% | 10% | 0%
1240 nM | 128 nM | 346 nM |  | COc1ccc(-c2nc(O)c3cccc(OC)c3n2)cc1 | 0% | 1% | 8%

SMILES | IC50 [1] | IC50 [2] | IC50 [4] | IC50 [7] | inhibition at 1 µM (HT-29 [3]) | inhibition at 10 µM (HT-29 [5]) | inhibition at 100 µM (HT-29 [6])
O=c1[nH]c(-c2ccc(C(F)(F)F)cc2)nc2ccccc12 | > 100000 nM | 133 nM | 425 nM | > 10000 nM | 0% | 0% | 0%
Cc1ccc(-c2nc3c(O)cccc3c(=O)[nH]2)cc1 | 559 nM | 44 nM | 22 nM |  | 0% | 28% | 48%
COc1cccc2c(=O)[nH]c(-c3ccc(Br)cc3)nc12 | > 100000 nM | 106 nM | 111 nM | 259 nM | 0% | 0% | 0%
COc1cccc2c(O)nc(-c3ccc(N)cc3)nc12 | 1590 nM | 1080 nM | 1280 nM |  | 0% | 0% | 22%
O=c1[nH]c(-c2ccc(F)cc2)nc2c(O)cccc12 | 1360 nM | 263 nM | 101 nM |  | 0% | 0% | 0%
Cc1cccc2c(=O)[nH]c(-c3ccc(CNC(=O)OCc4ccccc4)cc3)nc12 |  |  |  | > 100000 nM | 13% | 12% | 4%
COc1ccc(-c2nc3ccccc3c(=O)[nH]2)cc1 | 2720 nM | 611 nM | 250 nM |  |  |  | 
O=c1[nH]c(-c2ccc(Cl)cc2)nc2c(O)cccc12 | 645 nM | 49 nM | 46 nM |  | 0% | 60% | 68%
O=c1[nH]c(-c2ccc([N+](=O)[O-])cc2)nc2ccccc12 | > 10000 nM | 259 nM | 1100 nM | 2060 nM | 0% | 0% | 0%
Nc1ccc(-c2nc3ccccc3c(=O)[nH]2)cc1 | 1300 nM | 690 nM | 786 nM |  | 0% | 5% | 39%
Oc1nc(-c2ccccc2)nc2c(O)cccc12 | 1030 nM | 180 nM | 195 nM |  | 5% | 70% | 68%
